Assay results taken from EP0136586A2, “Novel corticoid derivatives and process for production thereof” (priority 1983, dated 1985).

Test system: thymus gland
Details: rat, in vivo, sc, 11520 min
Description: 2) Experiment on thymolytic action
The compounds to be tested are dissolved in a liquid consisting of croton oil : cotton seed oil : ethanol = 1:89:10 and the solution is used for injection.
The rats are anesthesized by inhalation of ether and 20 ml of air are subcutaneously injected into hypodermic organ at the back of the rats using a thin injection needle to form an oval-shaped air cavity. After the rats recovered from anesthesia they are kept on normal food and water. At 8th days after injection, rats are killed by depletion and dissected. The thymus gland is taken out and the wet weight is measured. Thymus weights obtained on the test compounds are divided with those obtained on control, and thymus gland atrophy rate is obtained.
In each of the experiments on anti-inflammatory activity and thymolytic action, clobetasol 17-propionate and betamethasone 17,21-dipropionate are used standard compounds and anti-inflammatory activity ratio and thymolytic activity ratio against clobetasol 17-propionate are calculated using linear regression parallel test method.

21-chloro-9a-fluoro-16a-methyl-l,4-pregnadiene-11β,17α-diol-3,6,20-trione 17a-methyl carbonate [Example 8]
Thymolytic activity ratio (B): 0.092
